Data from PubChem BioAssay AID834 (PCMD, 2007).
This is a selection; strong and weak results do not stand in their true shares. Activity calls are given as the source filed them.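 The calls were made as follows: active = inhibition above 20%; inactive = inhibition below 20%.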

Test: clotrimazole potentiators killing Candida biofilms, primary screen, with clotrimazole, Alamar Blue (AID 834);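 also: preformed 24 hr biofilms exposed to compound for 48 hr; 0% = biofilm without compound and 100% = blank killed by clotrimazole plus chlorhexidine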
Conditions: C. albicans biofilm + clotrimazole, at 6 µM, hits give high values

Row | SMILES | inhibition
1 | O=P1(Nc2nc3ccc(Cl)cc3s2)COc2ccccc2O1 (configuration not stated) | inactive: -3.88%
2 | COC(=O)c1cc2c(s1)N=C(c1ccccc1)N(C)P2(=O)N1CCOCC1 (configuration not stated) | inactive: 5.51%
3 | O=C(OC1CN2CCC1CC2)c1cccc(Cl)c1 (configuration not stated) | inactive: 1.33%
4 | c1nnnn1CCn1cnnn1 | inactive: 4.26%
5 | O=P(Nc1nccs1)(c1ccccc1)c1ccccc1 | inactive: 7.31%
6 | CCc1nc2c(n1)c1c(non1O)c1c2no[n+]1[O-] | inactive: 5.55%
7 | O=[N+]([O-])c1cccc2n[nH]nc12 | inactive: 6.69%
8 | CC1CCN(C(=O)Oc2c(Cl)cc(Cl)c3cccnc23)CC1 | inactive: 6.63%
9 | CCOP(=O)(Nc1ccccc1)OCC | inactive: 3.77%
10 | CN1CCCC(OC(=O)C(c2ccccc2)c2ccccc2)C1 (configuration not stated) | inactive: 7.6%
11 | Oc1ccccc1CNc1ccccn1 | inactive: 5.16%
12 | Cc1c2non([O-])c-2c(C)[n+](=O)[n+]1[O-] | inactive: 9.34%
13 | O=C(OC1CN2CCC1CC2)C12CC3CC(CC(C3)C1)C2 (configuration not stated) | inactive: 2.24%
14 | ClCCSc1nnc(-c2cccnc2)o1 | inactive: -1.01%
15 | O=C(COc1ccccc1)OC1CN2CCC1CC2 (configuration not stated) | inactive: -3.47%
16 | COP1(=S)c2c(C)nn(CCC#N)c2N=C(c2ccc(F)cc2)N1C (configuration not stated) | inactive: 4.13%
17 | CCC(C)N(CC(C)C)C(=S)SC(NC(C)=O)C(Cl)(Cl)Cl (configuration not stated) | inactive: -5.28%
18 | Clc1n[nH]nc1-c1nn[nH][15n]1 | inactive: 5.69%
19 | O=P1(Nc2ccccn2)COc2ccccc2OC1 | inactive: 6.96%
20 | CC1(CBr)Cn2c(nc3ccccc3c2=O)S1 (configuration not stated) | inactive: 8.26%
21 | Cc1nn(-c2ccccc2)c2c1P(=O)(N1CCOCC1)N(C)C(c1ccccc1)=N2 (configuration not stated) | inactive: 9.45%
22 | O=P1(Nc2ccc(Br)cn2)COc2ccccc2OC1 | inactive: -5.21%
23 | Cc1ccc(OCC(=O)OC2CN3CCC2CC3)cc1 (configuration not stated) | inactive: 9.4%
24 | O=P1(Nc2ncccn2)COc2ccccc2OC1 | inactive: -0.27%
25 | CCOP1(=S)c2c(C)nn(CCC#N)c2N=C(c2ccccc2F)N1C (configuration not stated) | inactive: 0%
26 | CCOP1(=S)c2c(C)nn(CCC#N)c2N=C(c2ccc(F)cc2)N1C (configuration not stated) | inactive: 9.07%
27 | Cc1cccc(OCC(=O)OC2CN3CCC2CC3)c1 (configuration not stated) | inactive: 9.62%
